{"source": "patent US12115208B2", "about": "“Small-molecule adjuvants for antibiotics to address antibiotic resistance” (HIGH POINT UNIVERSITY, priority 2017, dated 2024)", "tested_on": "β-lactamase, MRSA ATCC 43300", "assay": "Whole cell nitrocefin hydrolysis assay", "type": "cell-based, Staphylococcus aureus", "conditions": "intact MRSA 43300 cells", "data": [{"smiles": "Cc1onc(-c2ccccc2)c1C(=O)N[C@@H]1C(=O)N2[C@@H]1SC(C)(C)[C@@H]2C(=O)O", "note": "[Oxacillin]", "values": [{"measurement": "nitrocefin hydrolysis (absorbance at 486 nm)", "setting": "oxacillin alone (induction)", "value": "increased levels of nitrocefin hydrolysis"}]}, {"smiles": "Clc1ccc2c(c1)C(N1CCNCC1)=Nc1ccccc1O2", "note": "[Amoxapine, 2-chloro-11-(1-piperazinyl)dibenz[b,f][1,4]oxazepine]", "values": [{"measurement": "nitrocefin hydrolysis (absorbance at 486 nm)", "setting": "amoxapine + oxacillin versus oxacillin alone", "value": "markedly less absorbance"}]}]}
